Here are results for 3 compounds from US7332519B2, “Spirocyclic cyclohexane compounds” (dated 2008).

Sequences of proteins named here, by UniProt entry; tags and fusion partners are left off.
UniProt P41146, whole entry: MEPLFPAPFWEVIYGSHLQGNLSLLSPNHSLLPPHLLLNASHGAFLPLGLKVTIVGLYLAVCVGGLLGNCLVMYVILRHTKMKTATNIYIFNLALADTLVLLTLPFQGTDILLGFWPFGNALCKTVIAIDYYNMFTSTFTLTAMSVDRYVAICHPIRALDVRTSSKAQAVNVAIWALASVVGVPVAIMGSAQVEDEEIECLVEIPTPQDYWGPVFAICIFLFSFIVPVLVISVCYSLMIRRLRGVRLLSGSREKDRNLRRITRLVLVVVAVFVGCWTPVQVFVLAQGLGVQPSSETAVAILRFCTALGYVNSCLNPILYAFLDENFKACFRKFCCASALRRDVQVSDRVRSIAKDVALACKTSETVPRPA
UniProt P35372, whole entry: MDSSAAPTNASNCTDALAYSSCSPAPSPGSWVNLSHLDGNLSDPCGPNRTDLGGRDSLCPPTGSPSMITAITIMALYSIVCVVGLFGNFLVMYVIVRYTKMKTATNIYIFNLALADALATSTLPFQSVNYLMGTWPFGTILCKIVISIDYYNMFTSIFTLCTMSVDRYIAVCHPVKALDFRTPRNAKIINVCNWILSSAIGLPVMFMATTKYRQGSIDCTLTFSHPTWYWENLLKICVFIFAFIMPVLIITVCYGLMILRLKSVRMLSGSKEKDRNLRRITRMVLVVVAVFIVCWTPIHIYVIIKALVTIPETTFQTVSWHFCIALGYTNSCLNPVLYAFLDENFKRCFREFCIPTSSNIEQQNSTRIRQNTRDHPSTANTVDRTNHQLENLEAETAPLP

For one data set, the target named is ORL1 receptor (Homo sapiens, UniProt P41146). In words: Measurement of ORL1 binding, 3H-nociceptin/orphanin FQ receptor binding assay with membranes of recombinant CHO-ORL1 cells. Conditions: read-out: ORL1 Ki, 0.5 nM 3H-nociceptin/orphanin FQ. How it is done: Measurement of ORL1 Binding
The 4-aminocyclohexanol compounds of formula I were investigated in a receptor binding assay with ^3H-nociceptin/orphanin FQ with membranes of recombinant CHO-ORL1 cells. This test was conducted in accordance with the method described by Ardati et al. (Mol. Pharmacol., 51, 1997, p. 816-824). The concentration of ^3H-nociceptin/orphanin FQ in these experiments was 0.5 nM. The binding assays were carried out with 20 μg amounts of membrane protein per 200 μl batch in 50 mM Hepes, pH 7.4, 10 mM MgCl2 and 1 mM EDTA. The binding to the ORL1 receptor was determined using respective 1 mg amounts of WGA-SPA beads (Amersham-Pharmacia, Freiburg), by incubation of the batch for one hour at room temperature and subsequent measurement in a Trilux scintillation counter (Wallac, Finland). The affinity is given as the Ki value.

Another data set has as its target human μ-opiate receptor (Homo sapiens, UniProt P35372). In words: Measurement of the μ-bond, [3H]-Naloxon displacement, membrane preparation of CHO-K1 cells expressing the receptor. The settings on record: read-out: ORμ_Nal Ki, Cheng-Prusoff conversion. How it is done: Measurement of the μ-Bond
The receptor affinity for the human g-opiate receptor was determined in a homogeneous mixture in microtitre plates. For this purpose, dilution series of the respective substituted spirocyclic cyclohexane compound to be tested were incubated with a receptor membrane preparation (15-40 μg protein per 250 μl incubation mixture) of CHO-K1 cells, which express the human μ-opiate receptor (RB-HOM receptor membrane preparation from NEN, Zaventem, Belgium) in the presence of 1 umole/liter of the radioactive ligand [^3H]-Naloxon (NET719, NEN, Zaventem, Belgium) and 1 mg WGA-SPA-beads (Wheat germ agglutinin SPA beads from Amersham/Pharmacia, Freiburg, Germany) in a total volume of 250 μl for 90 minutes at room temperature. 50 mmole/liter tris-HCl were added as incubation buffer with 0.05% by weight sodium azide and 0.06% by weight bovine serum albumin. 25 μmole/liter naloxon were also added to determine the non-specific bond. At the end of the 90 minute incubation period, the microtitre plates were centrifuged off for 20 minutes at 1000 g, and the radioactivity was measured in a β-counter (Microbeta-Trilux, PerkinElmer Wallac, Freiburg, Germany). The percentage displacement of the radioactive ligand from its bond with the human μ-opiate receptor at a concentration of the test substances of 1 μmole/liter was determined and given as a percentage inhibition (% inhibition) of the specific bond. IC50 inhibition concentrations, which bring about a 50% displacement of the radioactive ligand, were in some cases calculated by taking as a basis the percentage displacement by various concentrations of the compounds of general formula I to be tested. Ki values for the test substances were obtained by conversion using the Cheng-Prusoff equation.

The subject of the next data set is mouse. In words: Analgesia test in the tail flick test in the mouse. The source says:
Analgesia Test in the Tail Flick Test in the Mouse
The mice were each placed individually into a test cage, and the base of the tail was exposed to the focused heat ray of an electric lamp (tail-flick type 50/08/1.bc, Labtec, Dr. Hess). The intensity of the lamp was adjusted so that the time from switching on of the lamp to the sudden twitching away of the tail (latency of pain) in untreated mice was from 3 to 5 seconds. Before administration of the solutions comprising the compound according to the invention or of the particular comparison solutions, the mice were pre-tested twice over the course of five minutes, and the mean of those measurements was calculated as the pre-test mean.
The solutions of the compound of the general formula I according to the invention and the comparison solutions were then administered intravenously. Pain measurement was carried out in each case 10, 20, 40 and 60 minutes following the intravenous administration. The analgesic activity was determined as the increase in the latency of pain (% of the maximum possible antinociceptive effect) according to the following formula: [(T1−T0)/(T2−T0)]×100 where time T0 is the latency before administration, time T1 is the latency after administration of the active ingredient combination and time T2 is the maximum exposure time (12 seconds).

The nature of a further data set: Place preference. The settings on record: compared to selective μ-opioids such as morphine. The text has this: Example 7 induces muscle relaxation and anesthesia in mice at higher doses.

pKi: −log10 of the molar value.

With `CN(C)C1(c2cccs2)CCC2(CC1)OCCc1c2[nH]c2ccccc12` (stereo not shown), the pKi on ORL1 receptor is 9.25; on human μ-opiate receptor, 9.57. In addition, the “Tail Flick (mouse, i.v.) ED50” value in the data set with mouse was 0.0035 mg/kg. In addition, the place preference result in “Place preference” is listed as “reduced place preference”.
Regarding `CN(C)C1(c2ccsc2)CCC2(CC1)OCCc1c2[nH]c2ccccc12` (stereo not shown), the pKi at human μ-opiate receptor was 9.92.
For `CN(C)C1(c2cccs2)CCC2(CC1)OCCc1c2[nH]c2ccc(F)cc12` (stereo not shown), the pKi at human μ-opiate receptor is 10.05. Also, the “Tail Flick (mouse, i.v.) ED50” value with mouse is given as 0.028 mg/kg.
